Measured values taken from patent publication US20060247320A1, “Compounds for inhibiting KSP kinesin activity” (priority 2005, published 2006).

The chains behind the UniProt entries cited, without tags or fusion partners. Residues count along the entry.
UniProt P52732, 18-359 limits assumed: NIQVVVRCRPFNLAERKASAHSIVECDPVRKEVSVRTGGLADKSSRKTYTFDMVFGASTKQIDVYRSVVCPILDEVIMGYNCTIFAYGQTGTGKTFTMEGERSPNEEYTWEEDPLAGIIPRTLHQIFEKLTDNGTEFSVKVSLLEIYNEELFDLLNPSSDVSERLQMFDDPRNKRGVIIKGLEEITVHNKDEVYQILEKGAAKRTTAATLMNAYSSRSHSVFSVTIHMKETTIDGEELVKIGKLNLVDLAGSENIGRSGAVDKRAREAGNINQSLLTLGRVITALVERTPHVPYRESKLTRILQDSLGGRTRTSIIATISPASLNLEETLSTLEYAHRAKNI

Target: KSP motor domain (Homo sapiens, UniProt P52732)
Assay: KSP endpoint assay (microtubule-stimulated ATPase, Biomol green, OD620)
Format: biochemical
Conditions: KSP inhibitory activity, end-point assay; class symbols (Table 1)

Row | SMILES | IC50 [µM]
1 | CC(C)(C)C1CCc2nc3sc(C(=O)N4C[C@@H](O)C[C@@H]4C(=O)O)cc3cc2C1 (stereo partly drawn) | > 10
2 | CNC(=O)c1cc2cc3c(nc2s1)CCC(C(C)(C)C)C3 (stereo not drawn) | < 0.1
3 | C[C@@H](CO)NC(=O)c1cc2cc3c(nc2s1)CCC(C(C)(C)C)C3 (stereo partly drawn) | 1 to 10
